Publication PMC11953467

B1: CXCR7-SmBiT [not stated] / LgBiT-βarr1 [not stated] (parent)
chain 1: MGDKGTRVFKKASPNGKLTVYLGKRDFVDHIDLVDPVDGVVLVDPEYLKERRVYVTLTCAFRYGREDLDVLGLTFRKDLFVANVQSFPPAPEDKKPLTRLQERLIKKLGEHAYPFTFEIPPNLPCSVTLQPGPEDTGKACGVDYEVKAFCAENLEEKIHKRNSVRLVIRKVQYAPERPGPQPTAETTRQFLMSDKPLHLEASLDKEIYYHGEPISVNVHVTNNTNKTVKKIKISVRQYADICLFNTAQYKCPVAMEEADDTVAPSSTFCKVYTLTPFLANNREKRGLALDGKLKHEDTNLASSTLLREGANREILGIIVSYKVKVKLVVSRGGLLGDLASSDVAVELPFTLMHPKPKEEPPHREVPENETPVDTNLIELDTNDDDIVFEDFARQRLKGMKDDKEEEEDGTGSPQLNNR
chain 2: MDLHLFDYSEPGNFSDISWPCNSSDCIVVDTVMCPNMPNKSVLLYTLSFIYIFIFVIGMIANSVVVWVNIQAKTTGYDTHCYILNLAIADLWVVLTIPVWVVSLVQHNQWPMGELTCKVTHLIFSINLFGSIFFLTCMSVDRYLSITYFTNTPSSRKKMVRRVVCILVWLLAFCVSLPDTYYLKTVTSASNNETYCRSFYPEHSIKEWLIGMELVSVVLGFAVPFSIIAVFYFLLARAISASSDQEKHSSRKIIFSYVVVFLVCWLPYHVAVLLDIFSILHYIPFTCRLEHALFTALHVTQCLSLVHCCVNPVLYSFINRNYRYELMKAFIFKYSAKTGLTKLIDASRVSETEYSALEQSTK

Variants of: B1
Test: βarr1 recruitment assay (CXCR7-SmBiT + LgBiT-βarr1), agonist dose-response
Settings: with LgBiT-βarr1, value read at the highest dose, log M about -5 (10 µM), read off a plot

Row | Variant | response (fold over unstimulated) (stimulation with VUF10661) | response (fold over unstimulated) (stimulation with VUF11418)
1 | chain 2 MDLHLFDYSEPGNFSDISWPCNSSDCIVVDTVMCPNMPNKSVLLYTLSFIYIFIFVIGMIANSVVVWVNIQAKTTGYDTHCYILNLAIADLWVVLTIPVWVVSLVQHNQWPMGELTCKVTHLIFSINAFGSIFFLTCMSVDRYLSITYFTNTPSSRKKMVRRVVCILVWLLAFCVSLPDTYYLKTVTSASNNETYCRSFYPEHSIKEWLIGMELVSVVLGFAVPFSIIAVFYFLLARAISASSDQEKHSSRKIIFSYVVVFLVCWLPYHVAVLLDIFSILHYIPFTCRLEHALFTALHVTQCLSLVHCCVNPVLYSFINRNYRYELMKAFIFKYSAKTGLTKLIDASRVSETEYSALEQSTK [chain 2 L128A] | 1.5 | 7.2
2 | chain 2 MDLHLFDYSEPGNFSDISWPCNSSDCIVVDTVMCPNMPNKSVLLYTLSFIYIFIFVIGMIANSVVVWVNIQAKTTGYDTHCYILNLAIADLWVVLTIPVWVVSLVQHNQWPMGELTCKVTHLIFSINLFGSIFFLTCMSVDRYLSITYFTNTPSSRKKMVRRVVCILVWLLAFCVSLPDTYYLKTVTSASNNETYCRSFYPEHSIKEWLIGMELVSVVLGFAVPFSIIAVFYFLLARAISASSDQEKHSSRKIIFSYVVVFLVCWLPAHVAVLLDIFSILHYIPFTCRLEHALFTALHVTQCLSLVHCCVNPVLYSFINRNYRYELMKAFIFKYSAKTGLTKLIDASRVSETEYSALEQSTK [chain 2 Y268A] | 1.2 | 2.3
